Values of other authors as cited in patent publication US10196361B2, “Sodium salt of uric acid transporter inhibitor and crystalline form thereof” (Jiangsu Hengrui Medicine Co., Ltd., priority 2015, dated 2019).

By UniProt entry, the sequences of proteins in these tests, tags left out. Where a name states a change or a piece, a line headed by the entry shows the natural chain unless it says otherwise.
UniProt Q96S37: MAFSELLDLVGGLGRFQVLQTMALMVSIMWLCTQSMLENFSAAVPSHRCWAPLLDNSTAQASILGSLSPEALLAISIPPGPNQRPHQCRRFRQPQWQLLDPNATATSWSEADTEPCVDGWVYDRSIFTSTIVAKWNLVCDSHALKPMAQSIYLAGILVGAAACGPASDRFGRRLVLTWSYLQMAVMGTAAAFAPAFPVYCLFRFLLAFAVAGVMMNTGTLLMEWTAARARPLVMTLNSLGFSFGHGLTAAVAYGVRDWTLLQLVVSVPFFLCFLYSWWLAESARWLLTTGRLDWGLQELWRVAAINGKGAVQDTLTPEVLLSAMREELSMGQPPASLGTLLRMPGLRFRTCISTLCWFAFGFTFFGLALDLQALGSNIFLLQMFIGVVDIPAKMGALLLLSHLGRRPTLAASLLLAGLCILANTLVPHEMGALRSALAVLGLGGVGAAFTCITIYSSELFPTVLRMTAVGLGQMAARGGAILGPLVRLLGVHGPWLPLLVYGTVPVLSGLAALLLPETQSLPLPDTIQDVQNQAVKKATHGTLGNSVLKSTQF

Molecular target: uric acid transporter URAT1 (Homo sapiens, UniProt Q96S37)
Conditions: read-out: IC50 against uric acid transporter URAT1; cited from earlier work

For O=C(O)CSc1nnc(Br)n1-c1ccc(C2CC2)c2ccccc12 [RDEA-594], which IC50 is on record?
Its IC50 is roughly 7 µM.
